The record followed here is article PMC3726004 (Bioorganic & medicinal chemistry, 2009).

Sequences of proteins named here, by UniProt entry; tags and fusion partners are left off. Residues count along the entry.
UniProt P09483, 31-630: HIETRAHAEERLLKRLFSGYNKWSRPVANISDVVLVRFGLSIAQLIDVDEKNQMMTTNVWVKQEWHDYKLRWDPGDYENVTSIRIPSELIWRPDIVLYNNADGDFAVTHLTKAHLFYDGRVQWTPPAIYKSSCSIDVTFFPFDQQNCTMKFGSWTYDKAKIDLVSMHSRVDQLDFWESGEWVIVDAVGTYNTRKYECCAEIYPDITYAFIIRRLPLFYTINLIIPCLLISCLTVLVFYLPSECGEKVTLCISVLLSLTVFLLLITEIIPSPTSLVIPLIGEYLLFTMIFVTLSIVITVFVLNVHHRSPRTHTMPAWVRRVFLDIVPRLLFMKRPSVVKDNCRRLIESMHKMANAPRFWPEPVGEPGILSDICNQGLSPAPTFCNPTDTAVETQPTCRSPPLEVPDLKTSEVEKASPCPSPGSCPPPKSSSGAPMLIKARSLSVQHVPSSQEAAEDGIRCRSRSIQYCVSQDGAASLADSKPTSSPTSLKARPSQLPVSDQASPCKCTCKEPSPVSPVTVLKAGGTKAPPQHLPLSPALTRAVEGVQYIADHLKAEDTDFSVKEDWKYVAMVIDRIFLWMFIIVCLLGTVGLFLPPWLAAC
UniProt P12390, 25-500: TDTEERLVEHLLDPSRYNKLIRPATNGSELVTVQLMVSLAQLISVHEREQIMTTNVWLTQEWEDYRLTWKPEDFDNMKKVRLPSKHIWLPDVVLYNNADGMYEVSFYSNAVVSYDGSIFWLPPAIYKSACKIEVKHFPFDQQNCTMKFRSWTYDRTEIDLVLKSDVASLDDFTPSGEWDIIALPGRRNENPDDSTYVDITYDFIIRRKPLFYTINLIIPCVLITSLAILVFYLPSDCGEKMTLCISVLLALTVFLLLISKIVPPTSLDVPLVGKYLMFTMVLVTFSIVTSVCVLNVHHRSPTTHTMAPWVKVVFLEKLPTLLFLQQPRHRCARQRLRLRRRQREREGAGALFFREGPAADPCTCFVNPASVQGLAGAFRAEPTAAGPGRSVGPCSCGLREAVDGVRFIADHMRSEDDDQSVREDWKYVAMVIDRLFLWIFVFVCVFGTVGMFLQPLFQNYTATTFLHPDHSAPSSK

The target in the experiment is α4β2* nAChRs (Rattus norvegicus, UniProt P09483+P12390). Put plainly: [3H]nicotine. Format: binding.

Structures are written as SMILES.

For `Cc1ccc(C(=O)O[C@@H](C[C@@H]2CCC[C@H](CC(=O)c3ccccc3)N2C)c2ccccc2)cc1.Cl` [Compound 3, (2S, 6S, 2R)-2-[6-(2-Toluyloxy-2-phenylethyl)-1-methylpiperidin-2-yl]-1-phenylethanone hydrochloride], the “fold less potent than lobeline in inhibiting [3H]nicotine binding (α4β2*)” value is 215–4800 fold.
